# From PubChem BioAssay (NCATS)
# The chains behind the UniProt entries cited, without tags or fusion partners.
# UniProt P04637, whole entry: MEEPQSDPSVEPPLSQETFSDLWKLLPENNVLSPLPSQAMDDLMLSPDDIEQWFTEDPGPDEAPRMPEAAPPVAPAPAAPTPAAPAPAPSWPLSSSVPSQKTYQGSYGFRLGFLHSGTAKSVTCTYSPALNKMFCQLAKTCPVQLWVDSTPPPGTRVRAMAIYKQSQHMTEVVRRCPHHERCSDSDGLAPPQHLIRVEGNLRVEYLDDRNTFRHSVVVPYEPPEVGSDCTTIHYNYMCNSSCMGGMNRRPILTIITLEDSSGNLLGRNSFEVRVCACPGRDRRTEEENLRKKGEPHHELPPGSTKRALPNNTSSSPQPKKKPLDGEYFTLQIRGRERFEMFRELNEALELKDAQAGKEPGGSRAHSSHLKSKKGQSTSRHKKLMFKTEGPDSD
# This is a selection; strong and weak results do not stand in their true shares. Results filed as inconclusive are left out. Some salts or complexes appear as unconnected parts, following the source record. Activity calls are given as the source filed them. Calls follow the shape of the dose curve; as a rule, active = well fitted curve in the direction sought with a large enough effect; inconclusive = small, poorly fitted or top-dose-only effect, or another doubt; inactive = no such curve, though single readings can be large; an effect the other way counts as inactive or inconclusive.
# Experiments:
# [1] = molecular target: Aldehyde dehydrogenase, mitochondrial (Homo sapiens) (UniProt P05091); test: qHTS for Inhibitors of the Aldehyde Dehydrogenase Family (ALDH2) Primary screen (AID 2061308); details: ALDH2 enzyme inhibition qHTS, 1536-well; at 56 µM (top of the series) unless noted;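 also: plate controls were vehicle for no effect and reference inhibitor for full effect; nearly all actives have a fitted effect of over 55% in size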
# [2] = molecular target: Retinaldehyde dehydrogenase 3 (Homo sapiens) (UniProt P47895); test: qHTS for Inhibitors of the Aldehyde Dehydrogenase Family (ALDH1A3) Primary screen (AID 2061315);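 also: plate controls were DMSO vehicle for no effect and reference inhibitor for full effect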; details: S. pombe CHP2027 cells, fluorescence laser cytometry, 18 h; at 56 µM (top of the series) unless noted
# [3] = molecular target: Cellular tumor antigen p53 (Homo sapiens) (UniProt P04637); test: Primary qHTS for small molecule compounds that upregulate eGFP-tagged delta133p53alpha (in N-terminal) cells. (AID 2060322); details: NCI-H358 eGFP-delta133p53alpha fluorescence, 24 h; active compounds read high;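 also: cells pre-induced with doxycycline then dosed without doxycycline; 0% = DMSO vehicle and 100% = reference activator; nearly all actives have a fitted effect of over 75% in size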
# [4] = BET inhibitor-based combinations targeting novel dependencies in MECOM-rearranged (r) AML: SET-2 cell line (AID 2202231); details: SET-2 AML cells viability, CellTiter-Glo luminescence, 48 h; active compounds read low; concentration not given here;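 also: plate controls were DMSO treated cells for no effect and wells without cells for full effect; nearly all actives have a fitted effect of over 35% in size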
# Source text: (§1) Ecotropic viral insertion site 1 (EVI1) is located on chromosome 3q26.2 as part of the MECOM (MDS and EVI1 complex) locus. Under normal hematopoiesis, EVI1 is a regulator of hematopoietic stem cell maintenance and self-renewal and EVI1 levels decrease as the cells differentiate. In approximately 5-10% of de novo acute myeloid leukemia (AML) EVI1 is aberrantly expressed, including Chromosomal inv(3)(q21;q26.2) or t(3;3)(q21;q26.2) alterations (MECOM-r) that account for about 50% of AML with EVI1 overexpression 31. AMLs with high levels of EVI1 have a poor prognosis and an overall survival time averaging between 10-14 months. EVI1 overexpression confers resistance in leukemia cells, highlighting the need to develop new targeted therapies for EVI1 overexpressing AMLs. […]
# (§2) A collection of 2480 mechanistically annotated dugs (MIPE v5.0) was used to screen four 3q26.2 rearranged AML cell lines and three non-3q26.2 rearranged AML cell lines. […] Cell viability was determined by luminescence based, Cell Titer Glo assay (Promega). […] Luminescence readings were taken using a Viewlux (PerkinElmer) with a 2 s exposure time per plate. […] Quantitative drug activity data from dose-response curves was determined utilizing area Under the Curve (AUC) and Z-transformed AUC (Z-AUC, a mean-centering transformation applied to each individual cell-line screened).
# [5] = BET inhibitor-based combinations targeting novel dependencies in MECOM-rearranged (r) AML: OCI-AML3 cell line (AID 2202232); details: CellTiter-Glo luminescence, 48 h; at 46 µM (top of the series);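 also: plate controls were DMSO vehicle wells for no effect and wells without cells for full effect; nearly all actives have a fitted effect of over 35% in size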
# Source text: as §1, §2
# [6] = BET inhibitor-based combinations targeting novel dependencies in MECOM-rearranged (r) AML: MV-4-11 cell line (AID 2202233); details: MV-4-11 AML viability, CellTiter-Glo luminescence, 48 h; at 46 µM (top of the series);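 also: plate controls were DMSO for no effect and blank wells for full effect; nearly all actives have a fitted effect of over 45% in size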
# How it was run: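 Activity is given as area under the curve and as Z-AUC, mean-centred within each cell line. It comes from 11-point dose curves normalized to DMSO and empty wells. CellTiter-Glo luminescence was read after 48 hr drug exposure of 500 cells/well.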
# [7] = BET inhibitor-based combinations targeting novel dependencies in MECOM-rearranged (r) AML: AML-191 cell line (AID 2202236;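 also: plate controls were vehicle wells for no effect and wells without cells for full effect; nearly all actives have a fitted effect of over 35% in size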); details: AML-191 viability, CellTiter-Glo luminescence, 48 h; at 46 µM (top of the series)
# Source text: as §1, §2
structure (smiles),measurement,setting,value
CCOP(=O)(CC)Oc1ccc([N+](=O)[O-])cc1 (stereo unspecified),"activity change, negative = inhibition",[1],inactive: 11.2%
same,"activity change, negative = inhibition",[2],inactive: -7.77%
OCCSCCO,activation,[3],inactive: -10.7%
C/C1=C2N=C(/C=C3N=C(/C(C)=C4\N=C(C(CC(N)=O)C4(C)CCC(=O)NCC(C)OP(=O)([O-])OC4C(CO)OC(n5cnc6cc(C)c(C)cc65)C4O)C4(C)N=C1C(CCC(N)=O)C4(C)CC(N)=O)C(CCC(N)=O)C\3(C)C)C(CCC(N)=O)C/2(C)CC(N)=O.[C-]#N.[Co] (stereo unspecified),activation,[3],inactive: 5.25%
same,"activity change, negative = inhibition",[1],inactive: -11.4% [at 28 µM]
same,"activity change, negative = inhibition",[2],inactive: -12.2% [at 28 µM]
C/C1=C2/N=C(C(CC(N)=O)C2(C)CCC(=O)NCC(C)OP(=O)([O-])OC2C(CO)OC(n3cnc4cc(C)c(C)cc43)C2O)C2(C)N=C(/C(C)=C3N=C(/C=C4N=C1C(CCC(N)=O)C\4(C)C)C(CCC(N)=O)C/3(C)CC(N)=O)C(CCC(N)=O)C2(C)CC(N)=O.[C-]#N.[Co] (stereo unspecified),viability,[4],inactive: 94.2%
same,viability (% of control),[5],inactive: 95%
same,"viability, % of control",[6],inactive: 91.2%
same,viability (% of control),[7],inactive: 82.6%
O=[N+]([O-])c1cccc([N+](=O)[O-])c1,activation,[3],inactive: -13%
